Sequences of proteins named here, by UniProt entry; tags and fusion partners are left off.
UniProt P22001, whole entry: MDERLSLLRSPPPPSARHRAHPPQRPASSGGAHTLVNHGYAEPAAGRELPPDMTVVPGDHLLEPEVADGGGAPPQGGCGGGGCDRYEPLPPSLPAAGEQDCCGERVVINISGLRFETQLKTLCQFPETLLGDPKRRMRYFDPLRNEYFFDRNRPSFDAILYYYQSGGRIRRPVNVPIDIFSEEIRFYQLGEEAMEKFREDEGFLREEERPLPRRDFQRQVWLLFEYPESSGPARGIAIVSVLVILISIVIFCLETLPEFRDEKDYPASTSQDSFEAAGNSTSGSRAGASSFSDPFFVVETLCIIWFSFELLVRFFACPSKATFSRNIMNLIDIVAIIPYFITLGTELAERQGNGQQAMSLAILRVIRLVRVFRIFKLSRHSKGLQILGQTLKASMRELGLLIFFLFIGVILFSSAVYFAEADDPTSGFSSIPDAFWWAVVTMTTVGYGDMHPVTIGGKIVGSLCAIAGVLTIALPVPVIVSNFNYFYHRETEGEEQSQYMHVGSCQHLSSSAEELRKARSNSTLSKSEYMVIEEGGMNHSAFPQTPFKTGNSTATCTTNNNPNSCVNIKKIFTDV

In ChEMBL document CHEMBL1128377, “Novel inhibitors of potassium ion channels on human T lymphocytes” (J Med Chem, 1995):

These compounds were tested against Potassium voltage-gated channel subfamily A member 3 (Homo sapiens, UniProt P22001) (assay: Concentration inhibiting [125I]ChTX (charybdotoxin) binding to N-type potassium channel.).

`CCCCC/N=c1\ccn(Cc2ccc(Cl)cc2)c2c(F)cccc12` and `CCCCC/N=c1\ccn(Cc2ccc(Cl)cc2)c2ccc(OC)cc12` are within 1.5-fold of each other in IC50: 227 nM for the first, 275 nM for the second.

In the case of `CCN(CC)CC/N=c1\ccn(Cc2ccccc2Cl)c2cc(Cl)ccc12`, the IC50 is reported as 7680 nM.
